From PubChem BioAssay AID2732 (Emory University Molecular Libraries Screening Center, 2010)
Only a part is listed here, and it is no random draw. Active and inactive are the calls of the source.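 How the source made its calls: active means compounds that reduced the stress-induced luciferase reporter signal by more than about 70% of percent inhibition (limit read from the data); inactive means the rest.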

Assay: inhibitors of CHOP promoter induction, primary screen, cell-based, unfolded protein response, luciferase reporter (AID 2732);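 further: 0% = tunicamycin plus vehicle and 100% = wells without tunicamycin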
Conditions: CHO-K1 CHOP-promoter luciferase, tunicamycin-induced, 15-18 h; at 10 µM; stronger effect = higher value

| Compound | inhibition |
| --- | --- |
| O=C(OC1CN2CCC1CC2)c1cccc(Cl)c1 (centres undefined) | inactive: 22.7% |
| Nc1ccc([As](=O)(O)c2ccc([N+](=O)[O-])cc2)cc1 | inactive: 18.3% |
| C(Cc1nn[nH]n1)Cc1nn[nH]n1 | inactive: -15.6% |
| O=P(Nc1ccccn1)(c1ccc(Br)cc1)c1ccc(Br)cc1 | inactive: 2.55% |
| O=P(Nc1nc2ccccc2s1)(c1ccccc1)c1ccccc1 | inactive: -7.56% |
| C[C@H]1OP(=O)(Oc2ccccc2)[C@H](O)[C@H](O)[C@H]1N=[N+]=[N-] (some centres undefined) | inactive: -0.04% |
| CC(C)C(=O)NC(Sc1ccccc1)C(Cl)(Cl)Cl (centres undefined) | inactive: 8.36% |
| O=P(Nc1nccs1)(c1ccccc1)c1ccccc1 | inactive: 8.18% |
| c1nnnn1CCn1cnnn1 | inactive: -19.5% |
| C[C@@H]1C=CCP(=O)(Oc2ccccc2)O1 (some centres undefined) | inactive: 15.6% |
| C[C@H]1OP(=O)(Oc2ccccc2)C[C@@H]2O[C@@H]21 (some centres undefined) | inactive: 2.92% |
| CC(=O)Nc1ccc([As](=O)(O)O)c(O)c1 | inactive: 2.14% |
| CC(=O)Nc1ccc(Oc2c([N+](=O)[O-])cc([N+](=O)[O-])cc2[N+](=O)[O-])cc1 | inactive: 6.68% |
| O=P1(Nc2nc3ccc(Cl)cc3s2)COc2ccccc2O1 (centres undefined) | inactive: 9.51% |
| CCOc1ccc(C2=NCC(CBr)S2)cc1 (centres undefined) | inactive: 15.1% |
| CC(C)(C)C(=O)NC(Sc1ccccc1)C(Cl)(Cl)Cl (centres undefined) | inactive: 42.4% |
| CN(C(=O)Cc1ccc(Cl)c(Cl)c1)[C@@H]1CCCC[C@@H]1N1CCCC1 | inactive: -0.75% |
| CCC(=O)N1C2C3N(C(=O)CC)C1C1N(C(=O)CC)C(C(N1C(=O)CC)N3C(=O)CC)N2C(=O)CC | inactive: -5.06% |
| COC(=O)c1cc2c(s1)N=C(c1ccccc1)N(C)P2(=O)N1CCOCC1 (centres undefined) | inactive: -3% |
| CC(=O)NC(SC(=S)N(CC(C)C)CC(C)C)C(Cl)(Cl)Cl (centres undefined) | inactive: 35.6% |
| Cc1ccc(OP(=O)(Nc2ccccn2)Oc2ccc(C)cc2)cc1 | inactive: 21.5% |
| Cc1ccccc1OP(=O)(Nc1ccccn1)Oc1ccccc1C | inactive: 9.81% |
| CN(C)C(=O)Oc1noc2ccccc12 | inactive: -23.6% |
| O=c1c2cc([N+](=O)[O-])ccc2[nH]c2c([N+](=O)[O-])cc([N+](=O)[O-])cc12 | active: 107% |
| c1ccc(-c2nn[nH]n2)c(-c2nn[nH]n2)c1 | inactive: 7.06% |
| Cc1ccc(NP(=O)(Oc2cccc(C)c2)Oc2cccc(C)c2)nc1 | inactive: -2.12% |
| CCOC(=O)NC(Sc1ccccc1)C(Cl)(Cl)Cl (centres undefined) | inactive: 53.9% |
| CCNC(=S)/N=C(\N)N[N+](=O)[O-] | inactive: 9.52% |
| O=C(NC1CCS(=O)(=O)C1)NP(=S)(Oc1ccccc1)Oc1ccccc1 (centres undefined) | inactive: 29.8% |
